The results in this text go back to EP0474580B1, “Use of 1-[3-(dimethylamino)propyl]-1-phenylphthalenes for the treatment of cerebrovascular disorders” (priority 1990, dated 1992).

The experiment has as its system ischemia-induced death in bilateral carotid arterial ligation (BCAL). In words: Brain ischemia-induced death in mice (bilateral carotid arterial ligation). The format is in vivo, ICR MICE. The method, then:
Male ICR MICE (Charles River) weighing 30 - 40 g were used after they were fasted for 1 day.
[…] Surviving mice were observed over 4 h.

Marks after values point to notes of the source that are not given here.

In the case of `CN(C)CCCC1(c2ccc(F)cc2)OCc2cc(C#N)ccc21` (stereo not shown) [Citalopram, citalopram], the “Survival rate (%) 2 h after BCAL” value (30 mg/kg,p.o., 30 min prior to ligation, 2 h after BCAL) was 50* %. Moreover, the “Survival rate (%) 4 h after BCAL” value (30 mg/kg,p.o., 30 min prior to ligation, 4 h after BCAL) is 43* %. In addition, the “ischemia-induced death / survival rate 2 h after ligation” value (30 mg/kg, 2 h after bilateral carotid arterial ligation, vs saline) was “significantly prevented ischemia-induced death”. Besides, under “30 mg/kg, 4 h after bilateral carotid arterial ligation, vs saline”, the “ischemia-induced death / survival rate 4 h after ligation” value is given as “significantly prevented ischemia-induced death”.
